Test results published in ChEMBL document CHEMBL5360537, “From lead to clinic: A review of the structural design of P2X7R antagonists” (Eur J Med Chem, 2023).

Amino acid sequences for entries named in this document (tags omitted). A change or cut given only in a name is not applied to a line headed by its entry.
UniProt Q99572: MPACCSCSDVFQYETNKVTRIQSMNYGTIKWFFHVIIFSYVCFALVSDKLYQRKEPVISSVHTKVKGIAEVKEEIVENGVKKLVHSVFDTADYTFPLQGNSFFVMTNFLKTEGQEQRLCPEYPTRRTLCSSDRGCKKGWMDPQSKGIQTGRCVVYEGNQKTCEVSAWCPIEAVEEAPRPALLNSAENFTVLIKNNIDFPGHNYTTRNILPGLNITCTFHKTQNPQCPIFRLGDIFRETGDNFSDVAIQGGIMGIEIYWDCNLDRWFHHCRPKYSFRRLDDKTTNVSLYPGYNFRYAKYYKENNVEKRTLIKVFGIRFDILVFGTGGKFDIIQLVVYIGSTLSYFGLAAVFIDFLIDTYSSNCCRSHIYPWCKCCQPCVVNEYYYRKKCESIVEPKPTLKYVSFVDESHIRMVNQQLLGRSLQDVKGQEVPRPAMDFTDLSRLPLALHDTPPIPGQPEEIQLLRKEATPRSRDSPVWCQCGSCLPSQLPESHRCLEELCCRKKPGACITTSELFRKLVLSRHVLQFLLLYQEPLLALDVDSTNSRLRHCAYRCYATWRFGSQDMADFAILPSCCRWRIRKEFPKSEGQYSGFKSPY

Target: P2X purinoceptor 7 (Homo sapiens, UniProt Q99572)
Experiment: Antagonist activity at recombinant human P2X7 receptor expressed in 1321N1 cells measured after 30 mins by fluorescence based calcium flux assay
Type: cell-based

Structure (SMILES): C[C@@H]1c2nnn(-c3cnccn3)c2CCN1C(=O)c1cccc(C(F)(F)F)c1Cl
- pIC50: 7.87

pIC50: −log10 of the molar value.
